## AlphaSeq binding of Ab-14 heavy chain variants to a spike HR2 peptide

Data: MIT Lincoln Laboratory AlphaSeq set, Li et al. 2023, doi:10.1038/s41467-023-39022-2, as distributed in FLAb.

All variants were tested on one target, the spike HR2 peptide PDVDLGDISGINAS (SARS-CoV-2).

Each scFv is VH, three GGGGS repeats, VL, as in the parent Ab-14, and differs from it in the CDRs of the heavy chain only.
VH: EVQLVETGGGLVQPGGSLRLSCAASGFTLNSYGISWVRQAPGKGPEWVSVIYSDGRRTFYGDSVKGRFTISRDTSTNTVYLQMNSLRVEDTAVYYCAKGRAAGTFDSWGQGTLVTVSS
VL: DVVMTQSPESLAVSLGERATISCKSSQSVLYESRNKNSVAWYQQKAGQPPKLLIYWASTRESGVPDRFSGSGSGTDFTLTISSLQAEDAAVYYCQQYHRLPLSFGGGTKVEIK

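The parent was found by panning a naive human phage display library on the peptide. These sequences belong to a second round, designed from the earlier measurements on random variants of the parent. Their group label is 14H_GP_HC (GP: Gaussian process model; HC: hill climbing; a sequence that several methods proposed may carry one label only). The assay is AlphaSeq: two haploid yeast populations carry antibody and antigen on their surface. Pairs that bind mate more often; barcode pairs of the diploids are counted by sequencing. Scores were corrected for input abundance and mapped to Kd with protein pairs of known affinity run in the same pool. Mating was done six times.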

Positions count from residue 1 of the parent VH; S31E puts E in place of S. Numbers give log10(Kd / nM), so 0 is 1 nM and 3 is 1 µM. Smaller is tighter. An entry "nd" has no value in the source: the pair was not observed among the diploids in that replicate. This suggests poor binding but is not conclusive. Three control strains display no target. For all heavy chain designs, 1% of the pairings with them gave a signal, with a median of 2.08 and one signal in twenty below 0.84, so weak values seen in few replicates may be background. For each scFv, signals with the empty controls are counted beside the result, with their mean in brackets.

changes	log10 Kd (nM) by replicate	signal with controls
S31E+S53A+D106V	1.03 nd nd nd nd nd	0/18
G61S+R100V+A102G+S107V	nd nd nd nd nd nd	0/18
T28R+S31E+R100Q+S107Q	1.03 0.90 0.65 0.75 0.64 2.14	0/18
T28C+S31D+G61A+R100K+S107E	nd 1.61 nd nd nd 1.81	0/18
S31E+G61M+A101T+S107T	0.28 0.94 0.57 0.37 0.21 0.27	0/18
S31E+D62W+G103V+S107G	nd nd nd nd nd nd	0/18
T28D+S31Q+G61S	-0.23 0.17 -0.12 -0.41 -0.44 0.07	0/18
T28D+G61S+T104H+D106N	nd nd nd nd nd 2.50	1/18 (1.11)
G61S+S63D+R100Q+A101L	nd nd nd nd nd nd	0/18
T28H+S31D+G61I+A101Y	nd nd nd nd 2.07 2.28	1/18 (2.82)
T28S+S31E+S53A+R100S	-0.49 -0.53 -0.59 -0.25 -0.77 -0.60	1/18 (2.34)
T28S+S31E+G61D+R100P+S107R	nd nd 1.54 1.66 nd nd	1/18 (1.43)
G61S+G103V+S107T	nd nd nd nd nd nd	0/18
S31D+F59Y+G61S	0.21 0.45 0.68 0.79 0.91 0.74	1/18 (1.12)
S31E+G103W+D106I	nd nd 0.91 -0.69 nd -0.09	0/18
G61D+R100Q+A101V+S107T	nd nd nd nd nd nd	0/18
T28D+T104S+D106N	nd nd nd nd nd nd	0/18
S31E+G61S+R100P	nd nd nd nd nd nd	1/18 (1.65)
G61D+R100T+A101T	-0.01 -0.06 -0.01 0.01 0.04 0.23	1/18 (1.96)
T28D+S63D+T104H+D106T	nd nd nd nd nd nd	0/18
S31E+G61T+A101T+S107V	0.12 -0.02 -0.01 -0.26 -0.18 0.19	1/18 (2.54)
T28V+S31D+S53A+R100T	0.13 0.30 0.09 -0.19 0.25 0.20	1/18 (2.13)
T28N+G61D+R100L+A101L	1.04 0.45 0.74 0.45 0.64 1.27	0/18
T28K+G61I+A101I	nd nd nd nd nd nd	0/18
G26K+S31E+A101N	nd 1.86 nd 2.45 nd 3.08	0/18
T28E+G61C+R100Q+A101L	nd nd nd -1.18 nd nd	0/18
G61A+G103V+S107Q	2.00 0.04 0.24 0.83 0.16 1.11	0/18
T28Q+S31D+G61Q+S63H+R100K	0.95 0.89 nd 1.63 1.40 2.34	0/18
T28A+S31D+R100T	0.09 0.59 0.36 0.28 0.01 0.41	0/18
S31D+G61H+D106M	nd nd nd nd nd nd	0/18
G26K+S31E+G61T+A101S	nd nd nd nd nd nd	0/18
T28V+S31E+G61D+A101T	0.28 0.27 0.85 0.21 0.64 0.43	1/18 (2.40)
N30D+A101I+S107R	2.61 1.15 1.52 nd 1.59 2.36	0/18
S31E+G61T+A101T+D106Y	nd 2.69 nd nd nd 1.93	0/18
T28H+S31D+G61I+A101V	1.63 1.34 1.12 nd 1.17 1.00	0/18
N30D+G61D+R100Q	1.97 1.53 1.02 nd 0.82 nd	0/18

The 5 strongest on average among those seen in every replicate, once more:

changes,log10 Kd (nM) by replicate,signal with controls
T28S+S31E+S53A+R100S,-0.49 -0.53 -0.59 -0.25 -0.77 -0.60,1/18 (2.34)
T28D+S31Q+G61S,-0.23 0.17 -0.12 -0.41 -0.44 0.07,0/18
S31E+G61T+A101T+S107V,0.12 -0.02 -0.01 -0.26 -0.18 0.19,1/18 (2.54)
G61D+R100T+A101T,-0.01 -0.06 -0.01 0.01 0.04 0.23,1/18 (1.96)
T28V+S31D+S53A+R100T,0.13 0.30 0.09 -0.19 0.25 0.20,1/18 (2.13)

The authors averaged sequences with at least three values out of six and counted those with two or fewer as poor binders. Of ten entries with the parent sequence, four were seen in most replicates (averages 0.34 to 2.37), three in one and three in none, so single entries are noisy. A sequence measured in both rounds can read differently, since the two assays cover different ranges.